Source: publication PMC4401541, “Structure- and Ligand-Based Virtual Screening Identifies New Scaffolds for Inhibitors of the Oncoprotein MDM2” (PLoS ONE, 2015)

Experiments:
MDM2-N [1] = molecular target: T1, MDM2-N (Homo sapiens, UniProt Q00987); test: Fluorescence polarization (FP) competition assay with p53-F; assay type: binding; details: read-out: FP % inhibition at 700 μM; compound 700 μM; MDM2-N 500 nM; p53-F 2 nM
Protocol: Fluorescence polarization experiments were performed with a LJL Biosystems Analyst multi-plate reader in 50mM HEPES pH 7.5, 100mM NaCl, 1mM DTT. Fluorescein labelled p53 peptide (p53-F) was synthesised by Biomatiks. […] The competition experiments were carried out by mixing MDM2-N (500nM), p53-F (2nM) and test compound in black NBS plate. […] The inhibition (%) was calculated using the equation below. %Inhibition=100(AF-AL)/(AF-AU) Where: AF is the anisotropy of fully bound p53-F.
AU is the anisotropy of unbound p53-F.
AL is the anisotropy of p53-F in the presence of MDM2-N + compound.

MDM2-N [2] = molecular target: T1, MDM2-N; test: Competitive capillary electrophoresis (CE) assay, compound vs fluorescently labelled p53 peptide (p53-F); assay type: binding; details: read-out: CE % inhibition at 300 μM
Protocol: Capillary electrophoresis (CE) is an analytical technique used to study the interaction between biomacromolecules. In CE, electrophoresis is carried out in the interior of a narrow capillary. The technique separates ions based on their electrophoretic mobility with the use of applied voltage. The electrophoretic mobility is dependent on the charge of the molecule, the viscosity and the molecular size. CE is performed using a high voltage to produce a high resolution profile with a short migration time to separate numerous analytes. […] The assay provides a high sensitivity through the use of a Laser Induced Fluorescence (LIF) detector to enable the detection of weak binding fragments. This enables the interaction assay to be performed with a low labelled probe concentration and allows compounds to be screened at low concentrations. A competitive CE assay was used to detect competition between compounds and fluorescently labelled p53 peptide (p53-F) in MDM2-N/p53 binding site. The injection sample contained carboxyfluorescein (internal standard (10pM)) and p53-F (500pM) in TAPS/Tris (1mM) pH 8.0, DTT (1mM). […] After injection of the sample, a voltage of 10kV was applied and separation was carried out for 6.5min.
TR is the migration time of p53-F peak.
TL is the migration time of p53-F peak in the presence of MDM2-N + compound.

`O=C(O)c1ccccc1Nc1ccccc1` [Compound 45] gave an inhibition at 700 µM (MDM2-N [1]) of 27% and an inhibition at 300 µM (MDM2-N [2]) of 43%.
